# Measured values: US8431565B2 (priority 2007, dated 2013)
# Amino acid sequences for entries named in this document (tags omitted).
# UniProt P34972, whole entry: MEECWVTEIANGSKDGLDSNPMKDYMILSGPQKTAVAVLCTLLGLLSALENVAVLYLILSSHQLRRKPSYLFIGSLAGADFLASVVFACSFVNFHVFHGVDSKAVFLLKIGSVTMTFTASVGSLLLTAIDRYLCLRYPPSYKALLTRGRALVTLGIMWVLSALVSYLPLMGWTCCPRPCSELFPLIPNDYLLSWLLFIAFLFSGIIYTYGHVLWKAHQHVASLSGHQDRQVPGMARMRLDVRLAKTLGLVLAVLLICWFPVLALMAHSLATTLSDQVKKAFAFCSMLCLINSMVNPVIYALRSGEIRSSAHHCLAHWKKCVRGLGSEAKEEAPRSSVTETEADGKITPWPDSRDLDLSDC
# Molecular target: human CB2 receptor (hCB2) (Homo sapiens, UniProt P34972)
# Test: cell-based
row,Structure (SMILES),EC50 [nM]
1,"CNC(=O)[C@@H](NC(=O)c1nc(-c2cc(F)c(F)cc2F)n2c1CN(Cc1cnn(C)c1)CCC2)C(C)(C)C [Compound 715, (S)-N-(3,3-dimethyl-1-(methylamino)-1-oxobutan-2-yl)-8-((1-methyl-1H-pyrazol-4-yl)methyl)-3-(2,4,5-trifluorophenyl)-6,7,8,9-tetrahydro-5H-imidazo[1,5-a][1,4]diazepine-1-carboxamide]",10 to 100
2,"CNC(=O)[C@@H](NC(=O)c1nc(-c2cc(F)c(F)cc2F)n2c1CN(c1ncccn1)CCC2)C(C)(C)C [Compound 716, (S)-N-(3,3-dimethyl-1-(methylamino)-1-oxobutan-2-yl)-8-(pyrimidin-2-yl)-3-(2,4,5-trifluorophenyl)-6,7,8,9-tetrahydro-5H-imidazo[1,5-a][1,4]diazepine-1-carboxamide]",10 to 100
3,"CNC(=O)[C@@H](NC(=O)c1nc(-c2cccc(F)c2OC)n2c1CN(C)CCC2)C(C)(C)C [Compound 657, (S)-N-(3,3-dimethyl-1-(methylamino)-1-oxobutan-2-yl)-3-(3-fluoro-2-methoxyphenyl)-8-methyl-6,7,8,9-tetrahydro-5H-imidazo[1,5-a][1,4]diazepine-1-carboxamide]",> 10000
4,"CC1CCN(CC(C)(C)NC(=O)c2nc(-c3cc(Cl)c(F)cc3F)n3c2CN(C)CCC3)CC1 [Compound 880, 3-(5-chloro-2,4-difluorophenyl)-8-methyl-N-(2-methyl-1-(4-methylpiperidin-1-yl)propan-2-yl)-6,7,8,9-tetrahydro-5H-imidazo[1,5-a][1,4]diazepine-1-carboxamide]",> 10000
5,"Cc1nnc([C@H](NC(=O)c2nc(-c3cc(F)c(F)cc3F)n3c2CN(CC(C)C)CC3)C(C)(C)C)o1 [Compound 698, (R)-N-(2,2-dimethyl-1-(5-methyl-1,3,4-oxadiazol-2-yl)propyl)-7-isobutyl-3-(2,4,5-trifluorophenyl)-5,6,7,8-tetrahydroimidazo[1,5-a]pyrazine-1-carboxamide]",10 to 100
6,"CNC(=O)[C@@H](NC(=O)c1nc(-c2cc(F)c(F)cc2F)n2c1CN(Cc1ccccc1)CCC2)C(C)(C)C [Compound 712, (S)-8-benzyl-N-(3,3-dimethyl-1-(methylamino)-1-oxobutan-2-yl)-3-(2,4,5-trifluorophenyl)-6,7,8,9-tetrahydro-5H-imidazo[1,5-a][1,4]diazepine-1-carboxamide]",0.1 to 10
7,"CN1CCCn2c(-c3cc(F)c(F)cc3F)nc(C(=O)N3CCOCC3)c2C1 [Compound 859, (8-methyl-3-(2,4,5-trifluorophenyl)-6,7,8,9-tetrahydro-5H-imidazo[1,5-a][1,4]diazepin-1-yl)(morpholino)methanone]",> 10000
8,"CN1CCCn2c(-c3cc(F)c(F)cc3F)nc(C(=O)N3CCCCC3CN3CCOCC3)c2C1 (stereo not shown) [Compound 789, (8-methyl-3-(2,4,5-trifluorophenyl)-6,7,8,9-tetrahydro-5H-imidazo[1,5-a][1,4]diazepin-1-yl)(2-(morpholinomethyl)piperidin-1-yl)methanone]",> 10000
9,"CN1CCCn2c(-c3ccccc3)nc(C(=O)Nc3cc(C(C)(C)C)no3)c2C1 [Compound 623, N-(3-tert-butylisoxazol-5-yl)-8-methyl-3-phenyl-6,7,8,9-tetrahydro-5H-imidazo[1,5-a][1,4]diazepine-1-carboxamide]",> 10000
10,"CNC(=O)[C@@H](NC(=O)c1nc(-c2cc(F)c(F)cc2F)n2c1CN(CC1CC1)CC2)C(C)(C)C [Compound 689, (S)-7-(cyclopropylmethyl)-N-(3,3-dimethyl-1-(methylamino)-1-oxobutan-2-yl)-3-(2,4,5-trifluorophenyl)-5,6,7,8-tetrahydroimidazo[1,5-a]pyrazine-1-carboxamide]",0.1 to 10
11,"CNC(=O)[C@@H](NC(=O)c1nc(C2CCN(C(=O)C(C)C)CC2)n2c1CN(C)CCC2)C(C)(C)C [Compound 728, (S)-N-(3,3-dimethyl-1-(methylamino)-1-oxobutan-2-yl)-3-(1-isobutyrylpiperidin-4-yl)-8-methyl-6,7,8,9-tetrahydro-5H-imidazo[1,5-a][1,4]diazepine-1-carboxamide]",> 10000
12,"CCNC(=O)[C@@H](NC(=O)c1nc(-c2cc(Cl)c(F)cc2F)n2c1CN(CC)CCC2)C(C)(C)C [Compound 890, (S)-3-(5-chloro-2,4-difluorophenyl)-8-ethyl-N-(1-(ethylamino)-3,3-dimethyl-1-oxobutan-2-yl)-6,7,8,9-tetrahydro-5H-imidazo[1,5-a][1,4]diazepine-1-carboxamide]",> 10000
13,"CN1CCn2c(-c3ccc(Cl)cc3F)nc(C(=O)N3CCC4(CCNC4=O)CC3)c2C1 [Compound 220, 8-(3-(4-chloro-2-fluorophenyl)-7-methyl-5,6,7,8-tetrahydroimidazo[1,5-a]pyrazine-1-carbonyl)-2,8-diazaspiro[4.5]decan-1-one]",> 10000
14,"Cc1nnc([C@@H](NC(=O)c2nc(-c3cc(Cl)ccc3F)n3c2CN(CC(C)C)CC3)C(C)(C)C)o1 [Compound 705, (S)-3-(5-chloro-2-fluorophenyl)-N-(2,2-dimethyl-1-(5-methyl-1,3,4-oxadiazol-2-yl)propyl)-7-isobutyl-5,6,7,8-tetrahydroimidazo[1,5-a]pyrazine-1-carboxamide]",10 to 100
15,"CNC(=O)[C@@H](NC(=O)c1nc(-c2ccc(OC(C)C)cc2)n2c1CN(C)CCC2)C(C)(C)C [Compound 649, (S)-N-(3,3-dimethyl-1-(methylamino)-1-oxobutan-2-yl)-3-(4-isopropoxyphenyl)-8-methyl-6,7,8,9-tetrahydro-5H-imidazo[1,5-a][1,4]diazepine-1-carboxamide]",> 10000
16,"CNC(=O)[C@@H](NC(=O)c1nc(-c2ccc(C(F)(F)F)cc2C)n2c1CN(C)CCC2)C(C)(C)C [Compound 632, (S)-N-(3,3-dimethyl-1-(methylamino)-1-oxobutan-2-yl)-8-methyl-3-(2-methyl-4-(trifluoromethyl)phenyl)-6,7,8,9-tetrahydro-5H-imidazo[1,5-a][1,4]diazepine-1-carboxamide]",> 10000
17,"Cc1nnc([C@@H](NC(=O)c2nc(-c3cc(F)c(F)cc3F)n3c2CN(Cc2ccco2)CC3)C(C)(C)C)o1 [Compound 707, (S)-N-(2,2-dimethyl-1-(5-methyl-1,3,4-oxadiazol-2-yl)propyl)-7-(furan-2-ylmethyl)-3-(2,4,5-trifluorophenyl)-5,6,7,8-tetrahydroimidazo[1,5-a]pyrazine-1-carboxamide]",> 10000
18,"CNC(=O)[C@@H](NC(=O)c1nc(-c2cc(F)c(F)cc2F)n2c1CN(c1cccc(Cl)n1)CC2)C(C)(C)C [Compound 687, (S)-7-(6-chloropyridin-2-yl)-N-(3,3-dimethyl-1-(methylamino)-1-oxobutan-2-yl)-3-(2,4,5-trifluorophenyl)-5,6,7,8-tetrahydroimidazo[1,5-a]pyrazine-l-carboxamide]",10 to 100
19,"CNC(=O)[C@@H](NC(=O)c1nc(-c2cc(F)c(F)cc2F)n2c1CN(c1ncccn1)CC2)C(C)(C)C [Compound 688, (S)-N-(3,3-dimethyl-1-(methylamino)-1-oxobutan-2-yl)-7-(pyrimidin-2-yl)-3-(2,4,5-trifluorophenyl)-5,6,7,8-tetrahydroimidazo[1,5-a]pyrazine-1-carboxamide]",0.1 to 10
20,"CNC(=O)[C@@H](NC(=O)c1nc(-c2ccc(C(F)(F)F)cc2C(F)(F)F)n2c1CN(C)CCC2)C(C)(C)C [Compound 617, (S)-3-(2,4-bis(trifluoromethyl)phenyl)-N-(3,3-dimethyl-1-(methylamino)-1-oxobutan-2-yl)-8-methyl-6,7,8,9-tetrahydro-5H-imidazo[1,5-a][1,4]diazepine-1-carboxamide]",> 10000
21,"CNC(=O)[C@@H](NC(=O)c1nc(-c2cc(F)c(F)cc2F)n2c1CN(Cc1cncnc1)CC2)C(C)(C)C [Compound 692, (S)-N-(3,3-dimethyl-1-(methylamino)-1-oxobutan-2-yl)-7-(pyrimidin-5-ylmethyl)-3-(2,4,5-trifluorophenyl)-5,6,7,8-tetrahydroimidazo[1,5-a]pyrazine-1-carboxamide]",10 to 100
22,"Cc1noc([C@@H](NC(=O)c2nc(-c3ccccc3)n3c2CN(CC2CC2)CC3)C(C)(C)C)n1 [Compound 88, (S)-7-(cyclopropylmethyl)-N-(2,2-dimethyl-1-(3-methyl-1,2,4-oxadiazol-5-yl)propyl)-3-phenyl-5,6,7,8-tetrahydroimidazo[1,5-a]pyrazine-1-carboxamide]",10 to 100
23,"CC1CN(C(=O)c2nc(-c3cc(F)c(F)cc3F)n3c2CN(C)CCC3)CC(C)O1 (stereo not shown) [Compound 854, (2,6-dimethylmorpholino)(8-methyl-3-(2,4,5-trifluorophenyl)-6,7,8,9-tetrahydro-5H-imidazo[1,5-a][1,4]diazepin-1-yl)methanone]",> 10000
24,"CN1CCCn2c(-c3cc(F)c(F)cc3F)nc(C(=O)N3CC(O)C3)c2C1 [Compound 856, (3-hydroxyazetidin-1-yl)(8-methyl-3-(2,4,5-trifluorophenyl)-6,7,8,9-tetrahydro-5H-imidazo[1,5-a][1,4]diazepin-1-yl)methanone]",> 10000
25,"O=C(NCC1CCOCC1)c1nc(-c2ccccc2)n2c1CN(CCO)CC2 [Compound 169, 7-(2-hydrodxyethyl)-3-phenyl-N-((tetrahydro-2H-pyran-4-yl)methyl)-5,6,7,8-tetrahydroimidazo[1,5-a]pyrazine-1-carboxamide]",> 10000
26,"CN1CCCn2c(-c3cc(F)c(F)cc3F)nc(C(=O)N3CCC(O)C3)c2C1 (stereo not shown) [Compound 857, (3-hydroxypyrrolidin-1-yl)(8-methyl-3-(2,4,5-trifluorophenyl)-6,7,8,9-tetrahydro-5H-imidazo[1,5-a][1,4]diazepin-1-yl)methanone]",> 10000
27,"CNC(=O)[C@@H](NC(=O)c1nc(-c2cc(F)c(F)cc2F)n2c1CN(c1cncc(Cl)n1)CC2)C(C)(C)C [Compound 686, (S)-7-(6-chloropyrazin-2-yl)-N-(3,3-dimethyl-1-(methylamino)-1-oxobutan-2-yl)-3-(2,4,5-trifluorophenyl)-5,6,7,8-tetrahydroimidazo[1,5-a]pyrazine-1-carboxamide]",0.1 to 10
28,"COC(=O)C1CN(C(=O)c2nc(-c3cc(Cl)c(F)cc3F)n3c2CN(C)CCC3)CCC1=O (stereo not shown) [Compound 826, methyl 1-(3-(5-chloro-2,4-difluorophenyl)-8-methyl-6,7,8,9-tetrabydro-5H-imidazo[1,5-a][1,4]diazepine-1-carbonyl)-4-oxopiperidine-3-carboxylate]",> 10000
